# US10668043B2, “Potentiated antimicrobial agents” (priority 2014, dated 2020)
# System: MSSA 8238
# Conditions: Sc., gentamycin 6 mg/kg or amoxicillin 30 mg/kg, cineol 30 mg/kg where present
substance,measurement,setting,value
gentamycin,c/MIC (plasma efficient concentration/MIC ratio),0.083 h post-injection,10
same,c/MIC (plasma efficient concentration/MIC ratio),1 h post-injection,3
same,c/MIC (plasma efficient concentration/MIC ratio),2 h post-injection,4
same,c/MIC (plasma efficient concentration/MIC ratio),5 h post-injection,0.2
same,c/MIC (plasma efficient concentration/MIC ratio),8 h post-injection,0.2
same,c/MIC (plasma efficient concentration/MIC ratio),24 h post-injection,0.155

# Like-named read-outs stand apart in the source and are kept apart here.
